{"source": "paper PMC4987166", "about": "(Clinical cancer research : an official journal of the …, 2016)", "key": {"[1]": {"target": "T1, EWS-FLI1 transcription factor (Homo sapiens, UniProt Q01543+Q01844)", "T1 sequence (Q01844+Q01543 with tags, fused parts or gaps)": "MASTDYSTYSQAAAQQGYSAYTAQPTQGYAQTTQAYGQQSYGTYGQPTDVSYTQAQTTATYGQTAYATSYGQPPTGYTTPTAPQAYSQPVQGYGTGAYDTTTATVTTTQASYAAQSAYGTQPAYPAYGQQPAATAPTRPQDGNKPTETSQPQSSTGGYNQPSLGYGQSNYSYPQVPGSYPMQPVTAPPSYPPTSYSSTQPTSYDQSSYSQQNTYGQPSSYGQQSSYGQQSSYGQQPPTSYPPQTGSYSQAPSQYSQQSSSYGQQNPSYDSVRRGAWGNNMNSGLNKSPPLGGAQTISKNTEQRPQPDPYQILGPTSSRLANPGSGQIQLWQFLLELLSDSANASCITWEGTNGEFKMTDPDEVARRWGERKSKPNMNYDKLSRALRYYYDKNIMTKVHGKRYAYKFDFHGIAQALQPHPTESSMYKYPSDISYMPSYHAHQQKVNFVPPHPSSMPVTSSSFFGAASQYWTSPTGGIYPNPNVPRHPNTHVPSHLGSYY", "assay": "NR0B1 luciferase reporter assay of EWS-FLI1 activity in TC32 cells", "format": "cell-based", "conditions": "read-out: IC50 of suppression of EWS-FLI1 activity; TC32 cells with NR0B1 luciferase reporter, 12 h"}, "[2]": {"system": "rat", "assay": "Rat toxicity: liver enzymes, liver synthetic function, hematopoiesis", "format": "in vivo", "conditions": "0.8 mg/kg intravenously"}, "[3]": {"assay": "Serum drug levels in mice", "format": "in vivo"}, "[4]": {"system": "HepG2 cells", "assay": "Time-lapse microscopy of HepG2 proliferation", "format": "cell-based", "conditions": "50 nmol/L mithramycin, 50 nmol/L EC-8042 or 7.5 nmol/L EC-8105"}, "[5]": {"system": "γH2AX phosphorylation", "assay": "DNA damage by phosphorylation of γH2AX", "format": "cell-based", "conditions": "50 nmol/L mithramycin, 50 nmol/L EC-8042 or 7.5 nmol/L EC-8105"}, "[6]": {"system": "CD-1 mice", "conditions": "mouse, ref DTP website at the NCI; cited from earlier work"}, "[7]": {"conditions": "Phase I/II trial, limited by liver toxicity; ref manuscript in preparation; cited from earlier work"}}, "note": "Marks after values point to notes of the source that are not given here."}
{"substance": "mithramycin", "values": [{"measurement": "IC50", "setting": "[1]", "result": 17, "unit": "nM"}, {"measurement": "circulating ALT", "setting": "[2]", "result": 46.99, "unit": "U/L"}, {"measurement": "circulating AST", "setting": "[2]", "result": 149.20, "unit": "U/L"}, {"measurement": "serum levels of drug", "setting": "[3]; mice, at the MTD", "result": 385, "unit": "nM"}, {"measurement": "serum levels of drug in the mouse", "setting": "[3]; mouse, determined in this study", "result": "over 300 nmol/L"}, {"measurement": "proliferation of HepG2 cells", "setting": "[4]", "result": "impaired their proliferation to a comparable extent"}, {"measurement": "DNA damage as measured by phosphorylation of γH2AX", "setting": "[5]", "result": "significant DNA damage"}, {"measurement": "Intraperitoneal MTD", "setting": "[6]", "result": "1.5 ^a mg/kg"}, {"measurement": "serum concentrations of the drug in patients", "setting": "[7]", "result": 17, "unit": "nM"}]}
